Reference: patent US5686423A, “Di-and tri-peptide mimetic compounds for Parkinson's disease” (Department of Health, the Executive Yuan, Republic of China, priority 1996, dated 1997)

Assays:
[1] = system: pulmonary artery; conditions: continuous perfusion of 1 mg/mL for one min
Method: (§1) Each experiment was repeated at least three times. The mean responses before and after drug treatment were compared by means of Student's t test, with p<0.05, indicating significance. The contractile force of both pulmonary artery and vas deferences was elicited after continuous perfusion of dopamine (1 mg/mL) for one min.
(§2) Male guinea pigs (250-350 g) were stunned and bled. The vas deferences and pulmonary artery were isolated. A piece of the smooth muscle (about 1 mm wide and 7 mm long) was dissected. The isolated part was mounted vertically on an organ bath (1 mL capacity), kept at 35° C. and superfused with a physiological solution at a constant rate of about 2 mL /min (35° C.). The normal physiological solution had the following composition: NaCl (117 mM), KCl (5.9 mM), CaCl2 (2.4 mM), MgCl2 (1.2 mM), D-glucose (11.8 mM) and Tris 20 (pH 7.4 at 35° C.), aerated with 100% oxygen. Drugs tested were perfused for one min and then superfused with normal physiological solution or otherwise indicated. Tension was recorded isometrically by means of a Grass FT03 tranducer connected to a Grass model 7E polygraph or by a Gould UC2 transducer connected to a Gould 2200S recorder. Each experiment was repeated at least three times with different preparations.

[2] = system: vas deferences; conditions: continuous perfusion of 1 mg/mL for one min
Method: as §1, §2

[3] = 37° C., after 90 minutes of incubation, n=2
[4] = rat jejunal perfusion, perfusate 0.1 mM; for plasma conc. (mean ± s.e.m): blood drawn after 90 min perfusion
[5] = Single dose oral and intra-artery bioavailability study in rabbits; conditions: 10 mg/Kg
[6] = intra-artery (i.a.), six rabbits, mean ± s.e.m.
[7] = oral, six rabbits, mean ± s.e.m.

D-p-hydroxyphenylglycine-L-proline-L-dopa [compound 2d]
contraction of pulmonary artery (resting tension) [1]: no significant contraction | contraction of vas deferences (resting tension) [2]: no significant contraction | fraction of compound remaining intact in rat intestinal mucosa suspension [3]: 94±0.03% | plasma conc. (mean ± s.e.m) [4]: 4.37 ± 0.45

D-phenylglycine-L-dopa [compound 1a]
AUC [5, 6]: 563.05 ± 107.06 µg·min/mL | Cmax [5, 6]: 43220 ± 8410 ng/mL | t1/2 [5, 6]: 51 ± 26 min | bioavailability ([5]; oral, rabbits): 76 (±24) % | AUC [5, 7]: 484.24 ± 91.14 µg·min/mL | Cmax [5, 7]: 8290 ± 3390 ng/mL | t1/2 [5, 7]: 61 ± 23 min | tmax [5, 7]: 13 ± 5 min

D-phenylglycine-L-proline-L-dopa [2c]
plasma concentration, fold higher than that of L-dopa [4]: 60-100 fold | plasma conc. (mean ± s.e.m) [4]: 84.66 ± 6.00
